## Measured logP (octanol/water) values of organic chemicals

From the experimental data distributed with OPERA 2.9.

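The numbers are reported measurements, compiled and curated for the OPERA QSAR suite. The files give a single number for a compound and property, which may rest on several reports. How each value was measured is not recorded, so precision varies. Where a salt, mixture or single isomer is drawn, the source does not say that exactly this form was tested. Unmarked limits or estimates from the upstream databases cannot be ruled out.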

The octanol-water partition coefficient is given as log10; larger values mean a more lipophilic compound.

structure (SMILES)	logP (octanol/water)
Cc1cc(C(C)(C)C)c(O)c(C)c1CC1=NCCN1	3.4
CC1=CC2C(C=O)CC1CC2C(C)C (configuration not stated)	4.155
CCCCCCCC/C=C\CCCCCCCCNCCCNCCCN	-0.3
N=c1c2ncn([C@@H]3O[C@H](CO)C[C@@H]3F)c2ncn1O	-1.38
Fc1cc(Br)cc(F)c1F	3.2
O=S(=O)(O)CS(=O)(=O)O	-1.49
CCCCOCc1ccc(O)c(OC)c1	2.2
CCCCC[C@H](O)CC[C@@H]1[C@H]2Cc3cccc(OCC(=O)O)c3C[C@H]2C[C@H]1O	4.1
CCCCCC(C)(C)OC	3.7
Oc1cc(Cl)cc(Br)c1	3.2
Cc1cc(/N=N/c2c(O)ccc3ccccc23)c(S(=O)(=O)[O-])cc1Cl.Cc1cc(/N=N/c2c(O)ccc3ccccc23)c(S(=O)(=O)[O-])cc1Cl.[Sr+2]	2.006
C=CC1CCC(C2CCC(c3ccc(C)cc3)CC2)CC1 (configuration not stated)	4.7
O=S(=O)(O)c1ccccc1	-0.8
Nc1c(CC(=O)O)cccc1C(=O)c1ccc(Br)cc1	3.4
O=C(O)COc1ccc(Cl)c2cccnc12	0.086
CCCCCC1CCC(C2CCC(CCC)CC2)CC1 (configuration not stated)	4.4
COc1ccc(Nc2ccc(OC)cc2)cc1	3.19
Clc1cccc(Nc2ccccc2)c1	3.92
Cc1cc[nH]n1	0.475
CC(C)c1ccc2oc3nc(N)c(C(=O)O)cc3c(=O)c2c1	4.1
N#Cc1ccc(O)c(O)c1	1.3
C1CCCCCC2OC2CCCC1 (configuration not stated)	4.7
CC(C(=O)O)c1ccc(C(=O)c2cccs2)cc1 (configuration not stated)	2.2
C/C=C/CCc1ccc(-c2ccc(C)cc2)cc1	7.3
CC1=NN(c2ccccc2)C(=O)C1=CC1C(=O)N(c2ccccc2)N=C1C (configuration not stated)	5.02
CC(O)CCC1CCCCC1 (configuration not stated)	3.3
Cc1nccn1C	0.11
CCCCOC(=O)CC	2.67
CCCCCCCCCCCC(=O)N(C)C	5.2
COc1ccc2c(c1)CCCC2	4.1
COC1=CCC2=C(CCC3C2CCC2(C)C(=O)CCC32)C1 (configuration not stated)	5.35
O=C1NC(=O)c2ccc3c4ccc5c6c(ccc(c7ccc1c2c73)c64)C(=O)NC5=O	0.8
CCNC(=O)CCC/C=C\C[C@@H]1[C@@H](/C=C/[C@@H](O)CCc2ccccc2)[C@H](O)C[C@@H]1O	3.2
N=C(N)c1ccc(OCCCCCOc2ccc(C(=N)N)cc2)cc1	4
CCOc1ccc(B(O)O)c(F)c1F	2.3
COCCOCOCCOC	-0.69
C=C1[C@H]2CC[C@@H]3[C@H]2C(C)(C)CCC[C@]13C	5
NNC(O)=Nc1ccccc1Cl	0.45
O=C1c2ccccc2C(=O)N1C[C@H](O)CNc1ccc(N2CCOCC2=O)cc1	0.6
NCc1ccccc1CC(=O)N[C@@H]1C(=O)N2C(C(=O)O)=C(CSc3nnnn3CC(=O)O)CS[C@H]12	-3.7
CC12CCC3C(CCC4C(C)(C)CCCC43C)(CO1)O2 (configuration not stated)	5.9
COc1cc(CCC(C)=O)ccc1O	0.4
O=[N+]([O-])c1cc(OCc2ccccc2)ccc1C=CN1CCCC1	2.8
C=CC(C)=CCCC(=C)C	4.17
O=S(=O)([O-])c1cc(S(=O)(=O)O)cc2nc(-c3ccc(-c4nc5cc(S(=O)(=O)O)cc(S(=O)(=O)[O-])c5[nH]4)cc3)[nH]c12.[Na+].[Na+]	-2.4
O=C(O)CCCn1nc2ccccc2n1	0.6
C=C(C)C(=O)OC(=O)C(=C)C	0.93
NCC1C2CCC(C2)C1CN (configuration not stated)	1
CC(C)(C)c1cc(O)ccc1O	1.725
Cc1cc(C2CCCCC2)n(O)c(=O)c1	2.3

A selection of 7 entries from above:

structure (SMILES)	logP (octanol/water)
CC(C)c1ccc2oc3nc(N)c(C(=O)O)cc3c(=O)c2c1	4.1
Oc1cc(Cl)cc(Br)c1	3.2
COc1ccc(Nc2ccc(OC)cc2)cc1	3.19
NCC1C2CCC(C2)C1CN (configuration not stated)	1
Cc1cc(C2CCCCC2)n(O)c(=O)c1	2.3
CC(O)CCC1CCCCC1 (configuration not stated)	3.3
C1CCCCCC2OC2CCCC1 (configuration not stated)	4.7